Assay results from patent publication US9150581B2, “Nicotinic receptor compounds” (priority 2011, dated 2015).
pKi: −log10 of the molar value.

The chains behind the UniProt entries cited, without tags or fusion partners. Residues count along the entry.
UniProt P09483, 31-630 limits assumed: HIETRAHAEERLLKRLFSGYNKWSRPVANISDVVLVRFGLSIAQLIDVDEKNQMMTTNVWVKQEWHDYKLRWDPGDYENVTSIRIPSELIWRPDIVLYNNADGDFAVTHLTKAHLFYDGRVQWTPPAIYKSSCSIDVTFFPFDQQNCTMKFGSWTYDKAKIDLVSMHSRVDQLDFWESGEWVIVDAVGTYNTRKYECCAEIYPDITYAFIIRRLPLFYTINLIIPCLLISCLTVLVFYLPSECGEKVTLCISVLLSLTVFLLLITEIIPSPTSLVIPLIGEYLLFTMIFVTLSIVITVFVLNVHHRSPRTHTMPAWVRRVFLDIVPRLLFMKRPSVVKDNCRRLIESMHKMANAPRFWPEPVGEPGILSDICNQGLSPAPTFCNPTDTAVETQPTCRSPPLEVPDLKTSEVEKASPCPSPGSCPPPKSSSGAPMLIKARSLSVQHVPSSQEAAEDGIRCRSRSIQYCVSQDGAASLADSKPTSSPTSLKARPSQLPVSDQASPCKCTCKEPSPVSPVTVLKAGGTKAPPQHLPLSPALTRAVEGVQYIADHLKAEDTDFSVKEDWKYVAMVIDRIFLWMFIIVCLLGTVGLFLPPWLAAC
UniProt P12390, 25-500 limits assumed: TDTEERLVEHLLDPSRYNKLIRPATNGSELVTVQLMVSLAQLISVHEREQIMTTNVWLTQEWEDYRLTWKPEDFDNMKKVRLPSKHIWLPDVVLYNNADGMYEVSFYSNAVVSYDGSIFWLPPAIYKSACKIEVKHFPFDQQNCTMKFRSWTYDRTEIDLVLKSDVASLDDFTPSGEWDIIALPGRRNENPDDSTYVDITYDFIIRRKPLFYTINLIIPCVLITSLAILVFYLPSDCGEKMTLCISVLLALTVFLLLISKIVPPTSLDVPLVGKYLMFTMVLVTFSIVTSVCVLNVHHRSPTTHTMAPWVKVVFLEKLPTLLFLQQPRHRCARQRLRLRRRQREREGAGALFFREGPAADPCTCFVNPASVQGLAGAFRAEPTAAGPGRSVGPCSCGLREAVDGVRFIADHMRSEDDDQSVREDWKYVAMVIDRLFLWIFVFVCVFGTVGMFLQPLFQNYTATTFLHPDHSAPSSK

Columns and labels:
α4β2 nAChR = α4β2 nAChR (Rattus norvegicus (Rat), UniProt P09483+P12390); assay: Inhibition of [3H]epibatidine binding at the α4β2 nAChR in male rat cerebral cortex; conditions: for pKi: read-out: αβ [3H]Epibatidine (Ki), tested form: HCl
mice [1] = assay: Tail-flick test (antinociception); assay type: in vivo, mouse; conditions: @ 10 mg/kg, sc
mice [2] = assay: Hot-plate test (antinociception); assay type: in vivo, mouse; conditions: @ 10 mg/kg, sc
mice [3] = assay: Hypothermia (rectal temperature); assay type: in vivo, mouse; conditions: sc; for Hypothermia, % effect at dose: @ 10 mg/kg
mice [4] = assay: Antagonism of nicotine antinociception, tail-flick; assay type: in vivo, mouse; conditions: for AD50 Tail-Flick: mice pretreated sc 10 min before nicotine 2.5 mg/kg sc
mice [5] = assay: Antagonism of nicotine antinociception, hot-plate; assay type: in vivo, mouse; conditions: for AD50 Hot-Plate: mice pretreated sc 10 min before nicotine 2.5 mg/kg sc; for Antagonism Hot-Plate, % at dose: @ 10000 μg/kg, before nicotine 2.5 mg/kg sc
mice [6] = assay: Spontaneous activity (photocell activity cages); assay type: in vivo, mouse; conditions: sc; for Spontaneous Activity, % effect at dose: @ 10 mg/kg
Male ICR adult mice = assay: Nicotine conditioned place preference (CPP) test; conditions: mouse, in vivo
Male Sprague-Dawley rats [7] = conditions: s.c., compound alone
Male Sprague-Dawley rats [8] = tested on: Male Sprague-Dawley rats

Row | Compound | Hill slope, αβ [3H]Epibatidine binding (α4β2 nAChR) | Tail-Flick, % effect at dose (mice [1]) | Hot-Plate, % effect at dose (mice [2]) | Hypothermia, % effect at dose (mice [3]) | AD50 Tail-Flick (mice [4]) | AD50 Hot-Plate (mice [5]) | pKi (α4β2 nAChR) | Tail-Flick, % effect at dose (mice [1]; tested form: HCl) | Hot-Plate, % effect at dose (mice [2]; tested form: HCl) | Hypothermia, % effect at dose (mice [3]; tested form: HCl) | AD50 Tail-Flick (mice [4]; tested form: HCl) | further results
1 | O=[N+]([O-])c1cccc(-c2cc(C3CC4CCC3N4)cnc2F)c1 (stereo not shown) | (1.04 ± 0.004) | 3% @ 10 | 20% @ 10 | 0% @ 10 | 0.0005 mg/kg | 0.13 mg/kg | – | – | – | – | – | –
2 | NS(=O)(=O)c1ccc(-c2cc([C@H]3C[C@@H]4CC[C@H]3N4)cnc2F)cc1 (relative stereo) | – | – | – | – | – | – | 10.52 | 3% @ 10 | 15% @ 10 | 0% @ 10 | 1.6 mg/kg | ED50 Spontaneous Activity (mice [6]; tested form: HCl): 4.2 mg/kg; Antagonism Hot-Plate, % at dose (mice [5]; tested form: HCl): 50% @
3 | O=S(=O)(c1ccc(-c2cc([C@H]3C[C@@H]4CC[C@H]3N4)cnc2F)cc1)C(F)(F)F (relative stereo) | – | – | – | – | – | – | 9.03 | 4% @ 10 | 19% @ 10 | 0% @ 10 | 0.0009 mg/kg | Spontaneous Activity, % effect at dose (mice [6]; tested form: HCl): 5% @ 10; AD50 Hot-Plate (mice [5]; tested form: HCl): 0.01 mg/kg
4 | CS(=O)(=O)c1ccc(-c2cc(C3CC4CCC3N4)cnc2F)cc1 (single isomer, unassigned) | – | 3% @ 10 | 10% @ 10 | 0% @ 10 | 0.00011 mg/kg | 2.76 mg/kg | – | – | – | – | – | Spontaneous Activity, % effect at dose (mice [6]): 0% @ 10
5 | O=[N+]([O-])c1ccc(-c2cc(C3CC4CCC3N4)cnc2F)cc1 (single isomer, unassigned) | (0.68 ± 0.09) | 10% @ 10 | 22% @ 10 | – | 0.002 mg/kg | 0.18 mg/kg | – | – | – | – | – | ED50 Hypothermia (mice [3]): 2.2 mg/kg; ED50 Spontaneous Activity (mice [6]): 0.57 mg/kg; Antagonism Tail-Flick, % at dose (mice [4]; @ 10000 μg/kg, before nicotine 2.5 mg/kg sc): 0% @ 10000; AD50 Tail-Flick (mice [4]; listed as (±)-102): 0.003 mg/kg; Antagonism Hot-Plate, % at dose (mice [5]): 0% @ 10000; AD50 Hot-Plate (mice [5]; listed as (±)-102): 0.12 mg/kg; Blockade of nicotine CPP (Male ICR adult mice): dose-dependently blocked nicotine CPP; Preference or aversion induced by compound itself in CPP (Male ICR adult mice): did not induce significant preference or aversion; Effect on blood pressure (Male Sprague-Dawley rats [7]): sustained increases in blood pressure; Effect on heart rate (Male Sprague-Dawley rats [7]): minimal effects on heart rate; Nicotine-appropriate responding (Male Sprague-Dawley rats [8]; at doses that suppressed rates of responding): around 30%; Effect on rates of responding (Male Sprague-Dawley rats [8]; compound alone): suppressed rates of responding
